Earlier results in publication PMC10947368.

Chains of the proteins cited; added tags and fusions are not shown. Residues count along the entry.
UniProt P01589, 22-240, chain 1 of 3: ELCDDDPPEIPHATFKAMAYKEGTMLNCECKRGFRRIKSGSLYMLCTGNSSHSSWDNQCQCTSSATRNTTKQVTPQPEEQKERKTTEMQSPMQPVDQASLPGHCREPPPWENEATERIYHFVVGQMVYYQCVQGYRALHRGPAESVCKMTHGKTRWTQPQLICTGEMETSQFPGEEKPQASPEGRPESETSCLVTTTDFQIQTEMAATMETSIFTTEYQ
UniProt P60568, 21-153: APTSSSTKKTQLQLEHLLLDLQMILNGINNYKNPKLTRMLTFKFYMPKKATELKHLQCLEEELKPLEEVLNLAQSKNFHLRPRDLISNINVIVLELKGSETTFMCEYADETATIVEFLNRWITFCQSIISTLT

Molecular target: IL-2Rα/IL-2Rβ/γc heterotrimeric receptor (Homo sapiens) (UniProt P01589)

Kd: 0.01 nM
Substance: Interleukin-2 (from UniProt P60568)
